# HCMV NEC inh – cytomegalovirus nuclear egress complex inhibition | HTRF UL50-UL53 interaction, normalized percent inhibition | inhibition, % (test concentration not listed) | hit rate 0.15% among 190,000; in the data active = inhibition above about 27%, passing the limit was not always enough
# GIV-Gai inh – inhibitors of GIV GBA-motif binding to rat Galpha-i3; P08753; Galpha-i3/FITC-GIV peptide fluorescence polarization, 90 min; stronger effect = lower value; scaled: aluminum fluoride 0%, vehicle 100%; percent of control (FP), % (no concentration beside the values); actives 0.42% (n = 210,000); AID 1224905;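 active means replicate mean at 85% of control or lower, very high polarization wells dropped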;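 further: wells of about 15 µL received 100 nL stock; the first replicate is given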
# An asterisk follows results filed as active; · = no result given. The entries come from a sample that favours hits as a whole.
(1) Cc1[nH]c(C(=O)Nc2ccccc2F)c(C)c1S(=O)(=O)N1CCCCC1
(2) Cn1c(-c2ccccc2)cc(C=Nc2ccccc2)c1O
(3) CC(C)N=Cc1cc2n(c1O)-c1ccccc1C2=O
(4) Cc1cc(N2CCCC2)n2nc(CN3CCN(c4ccc(Cl)cc4)CC3)nc2n1
(5) Nc1ccc(-c2nc3ccccc3s2)cc1
Assay by compound	1	2	3	4	5
HCMV NEC inh	-11.2	·	-120.3	·	-35.1
GIV-Gai inh	113.2	116.8	-20.3*	98.2	·

(6) Nc1ncc(-c2nc3ccccc3s2)c(N)n1
(7) CCC(=O)Oc1ccc(C=C2C(=O)NC(=O)NC2=O)cc1OC
(8) C=CCc1cc(C=C2C(=O)NC(=O)NC2=O)cc(OC)c1OC
(9) COc1cc(C=C2C(=O)NC(=O)NC2=O)cc(Cl)c1OCc1ccccc1Cl
(10) COc1cc(C=C2C(=O)NC(=O)NC2=O)ccc1OC(=O)c1ccc(Cl)cc1
Assay by compound	6	7	8	9	10
HCMV NEC inh	-13.8	55.9*	59.8*	3.5	-5.0
GIV-Gai inh	-55.4*	96.3	106.8	107.9	106.6

(11) Cc1ccc(C2=CSc3nnc(-c4ccccc4Br)n3N2)cc1
(12) CCc1ccc(C(=O)CSc2nnc(-c3ccncc3)n2C2CC2)s1
(13) COc1ccc(CN2C(=O)CC(c3ccc(OC)cc3)CC2=O)cc1
(14) CCCc1nn2c(=O)cc(CN3CCCc4ccccc43)nc2s1
(15) O=c1cc(CN2CCCc3ccccc32)nc2sccn12
Assay by compound	11	12	13	14	15
HCMV NEC inh	-7.2	-19.7	7.4	·	-55.3
GIV-Gai inh	·	·	101.4	158.9	-43.0*

(16) C=CCN1C(=O)/C(=C/c2c(N3CCNC(=O)C3CC(=O)OCC)nc3ccccn3c2=O)SC1=S (stereo not drawn)
(17) COc1ccc(NS(=O)(=O)c2cc3[nH]c(=O)[nH]c3cc2Cl)c(OC)c1
(18) CCOC(=O)C1=C(C)N=c2s/c(=C/c3cccc([N+](=O)[O-])c3O)c(=O)n2C1c1cc(OC)c(OC)c(OC)c1 (stereo not drawn)
(19) CCOC(=O)C1=C(C)N=c2s/c(=C/c3cc(Br)cc([N+](=O)[O-])c3O)c(=O)n2C1c1ccccc1 (stereo not drawn)
(20) CCOC(=O)C1=C(C)N=c2s/c(=C/c3cc([N+](=O)[O-])ccc3N3CCN(C)CC3)c(=O)n2C1c1ccc(F)cc1 (stereo not drawn)
Assay by compound	16	17	18	19	20
HCMV NEC inh	-37.3	·	·	·	·
GIV-Gai inh	·	109.5	108.3	26.5*	100.2

(21) CCOC(=O)C1=C(C)N=c2s/c(=C/c3cc([N+](=O)[O-])ccc3O)c(=O)n2C1c1ccc(SC)cc1 (stereo not drawn)
(22) Fc1ccc(N2CCN(c3nccn4nc(-c5ccc(Cl)cc5)cc34)CC2)cc1
(23) Cc1ccc(C)c(N2N=C(C(=O)OCN3C(=O)c4ccccc4C3=O)CCC2=O)c1
(24) COc1cccc(N2CCN(C(=O)C(C)C3CCN(S(=O)(=O)c4c(C)noc4C)CC3)CC2)c1 (stereo not drawn)
(25) N#Cc1c(-c2ccc3c(c2)OCO3)cc(-c2ccc(F)cc2)nc1N
Assay by compound	21	22	23	24	25
HCMV NEC inh	·	-0.1	-38.0	·	1.5
GIV-Gai inh	26.5*	101.5	·	108.5	110.6

(26) N#Cc1c(N)oc(-c2ccc3c(c2)OCO3)c1-c1ccc2c(c1)OCO2
(27) Cc1cc(NC(=O)NCc2ccccc2)c(C(F)(F)F)o1
(28) CN1c2ccc(Cl)cc2-c2nc(SCC(=O)NC3CCCCC3)ncc2S1(=O)=O
(29) CN1c2cc(Cl)ccc2-c2nc(SCC(=O)NC3CCCCC3)ncc2S1(=O)=O
(30) CCOC(=O)C1=C(C)NC(=O)c2c(ccc(OC)c2OC)C1O (stereo not drawn)
Assay by compound	26	27	28	29	30
HCMV NEC inh	-55.2	9.4	-16.9	66.8*	1.1
GIV-Gai inh	-53.9*	103.0	105.9	105.5	96.0

(31) O=C(NN(c1ccccc1)c1ccccc1)C(O)c1ccccc1 (stereo not drawn)
(32) CCOC(=O)C1=C(C)Nc2ccccc2N=C1NC(=O)c1ccccc1C
(33) CN(C)CCNc1cc(N2CCN(C(=O)c3ccco3)CC2)c2noc3c2c1C(=O)c1ccccc1-3
(34) CCCCNc1cc(N2CCC(C)CC2)c2noc3c2c1C(=O)c1ccccc1-3
(35) CCNc1cc(N2CCN(c3ccccc3)CC2)c2noc3c2c1C(=O)c1ccccc1-3
Assay by compound	31	32	33	34	35
HCMV NEC inh	·	-12.2	-132.1	-59.6	-2.4
GIV-Gai inh	113.5	·	-31.4*	2.5*	114.3

(36) CCNc1cc(N2CCCC2)c2noc3c2c1C(=O)c1ccccc1-3
(37) CN(C)CCNc1cc(N2CCOCC2)c2noc3c2c1C(=O)c1ccccc1-3
(38) CCNc1cc(N2CCC(C)CC2)c2noc3c2c1C(=O)c1ccccc1-3
(39) O=C(NC1CCCCCC1)C1CCCO1 (stereo not drawn)
(40) CCCn1nc(NC(=O)Cn2ccc(-c3ccccc3F)n2)c2ccccc21
Assay by compound	36	37	38	39	40
HCMV NEC inh	·	-73.0	-71.9	9.0	-16.5
GIV-Gai inh	201.1	-68.2*	139.4	105.6	·

(41) CCOC(=O)c1ccc(NC(=O)c2sc(NC(=O)c3ccc(F)cc3)c(C(=O)OCC)c2C)cc1
(42) CC(C)OC(=O)c1ccc(CN2C(=O)NC(CCc3ccccc3)C2=O)o1 (stereo not drawn)
(43) C=CCn1cnnc1SCC1CCCCC1
(44) CC1CCN(c2cc(N3CCN(C(=O)c4cccc(F)c4F)CC3)c([N+](=O)[O-])cc2F)CC1
(45) CCCCn1c2ccc(Cl)cc2c2nc3ccccc3nc21
Assay by compound	41	42	43	44	45
HCMV NEC inh	-25.5	-19.7	9.2	·	-8.8
GIV-Gai inh	96.6	·	·	108.9	103.2

(46) O=C(O)c1cccc2cccc(C(=O)O)c12
(47) Nc1ccc(C(=O)O)c2c(C(=O)O)cccc12
(48) COc1ccc(CNC(=O)c2ccc(-n3nnc4cccnc43)cc2)c(OC)c1
(49) CCN1/C(=C/C=C/c2n(CC)c3cc(Cl)ccc3[n+]2Cc2ccccc2)N(Cc2ccccc2)c2ccc(Cl)cc21
(50) CCN1/C(=C\C=C\c2n(CC)c3cc([N+](C)(C)C)ccc3[n+]2CC)N(CC)c2cc([N+](C)(C)C)ccc21
Assay by compound	46	47	48	49	50
HCMV NEC inh	-30.5	-46.4	-6.1	·	·
GIV-Gai inh	98.4	71.9*	122.5	-62.4*	94.3

(51) CCOc1ccc(NC(=O)N(C)CCc2c(C)nn(CC)c2C)cc1
(52) CCc1nn2c(=O)cc(COc3ccc(/C=C4/C(=N)N5C=CSC5=NC4=O)cc3OC)nc2s1
(53) Cc1ccc(-n2c(-c3cccc(C)c3)nc3c(cnn3-c3ccccc3)c2=O)cc1
(54) Cc1cccc(-c2nc3c(cnn3-c3ccccc3)c(=O)n2-c2ccc(Br)cc2)c1
(55) CCOC(=O)NN1CC(O)=C(c2nc3ccccc3n2C)C1=N
Assay by compound	51	52	53	54	55
HCMV NEC inh	-15.9	·	6.9	56.5*	-12.7
GIV-Gai inh	104.0	100.9	109.0	110.4	·

(56) CCc1ccc(NC(=O)c2sc3nc(C)cc(C)c3c2-n2cccc2)cc1
(57) CCCSc1ncc(Cl)c(C(=O)Nc2c(C)n(C)n(-c3ccccc3)c2=O)n1
(58) O=C1c2ccccc2C(=O)c2c(NC3CCCCC3)ccc(Nc3ccc(Oc4ccccc4)cc3)c21
(59) O=C1C=C(C(F)(F)F)c2ccc(NC3CCCCC3)c3cccc1c23
(60) Cc1nc(C)c(C(=O)Nc2ccccc2Cl)s1
Assay by compound	56	57	58	59	60
HCMV NEC inh	-16.5	-22.9	-5.9	·	4.7
GIV-Gai inh	107.2	102.1	103.6	-83.8*	112.8

# The closing 3 entries of the part above come first, to join the parts:
(58) O=C1c2ccccc2C(=O)c2c(NC3CCCCC3)ccc(Nc3ccc(Oc4ccccc4)cc3)c21
(59) O=C1C=C(C(F)(F)F)c2ccc(NC3CCCCC3)c3cccc1c23
(60) Cc1nc(C)c(C(=O)Nc2ccccc2Cl)s1
(61) CCN(Cc1ccc(Cl)cc1)Cc1cc(=O)n2nc(C(C)C)sc2n1
(62) Cc1ncc(CO)c(/C=N/N=C/c2c(O)ccc3ccccc23)c1O
(63) Cc1ccc(C(O)CN=Cc2c(O)ccc3ccccc23)cn1 (stereo not drawn)
(64) CCCN(C(=O)c1cc2c(s1)-c1c(C)cccc1OC2)c1cccc(Cl)c1
(65) Cc1c(-c2ccnc(N)n2)cnn1-c1ccccc1
Assay by compound	58	59	60	61	62	63	64	65
HCMV NEC inh	-5.9	·	4.7	·	-3.6	61.8*	·	-24.1
GIV-Gai inh	103.6	-83.8*	112.8	112.1	117.1	·	102.7	105.0

(66) Nc1nc2c(s1)CCc1c-2cnn1-c1ccccc1
(67) O=c1c2cccc3cccc(c32)c2nc3ccccc3n12
(68) C=CCNc1ccc2c3c1cccc3c(=O)n1c3ccccc3nc21
(69) Cc1cc(-c2c(C)sc(C)c2S(=O)(=O)Nc2ccc(C)c(F)c2)n[nH]1
(70) CCOc1cc(/C=C2/SC(=S)N(C)C2=O)cc(Br)c1O
(71) CCOc1cc(/C=C2/SC(=Nc3ccccc3)NC2=O)cc(Br)c1O
Assay by compound	66	67	68	69	70	71
HCMV NEC inh	62.7*	·	·	·	-0.6	-53.4
GIV-Gai inh	·	112.2	-51.6*	96.4	-46.7*	276.4

# Screening data deposited in PubChem by ICCB-Longwood Screening Facility, Harvard Medical School.
